According to publication PMC10005967 (Molecular Psychiatry, 2022):
Several values for one entry are separate records, joined by “and”; a condition that tells them apart may be missing. Identical values can stand only once. Like-named read-outs stand apart in the source and are kept apart here.

By UniProt entry, the sequences of proteins in these tests, tags left out. Residues count along the entry.
UniProt P10636, 561-697 limits assumed: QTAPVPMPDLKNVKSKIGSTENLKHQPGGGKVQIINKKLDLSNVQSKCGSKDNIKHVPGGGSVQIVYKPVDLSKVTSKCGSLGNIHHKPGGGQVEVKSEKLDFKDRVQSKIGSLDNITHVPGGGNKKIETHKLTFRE
UniProt P10636, 561-698 limits assumed: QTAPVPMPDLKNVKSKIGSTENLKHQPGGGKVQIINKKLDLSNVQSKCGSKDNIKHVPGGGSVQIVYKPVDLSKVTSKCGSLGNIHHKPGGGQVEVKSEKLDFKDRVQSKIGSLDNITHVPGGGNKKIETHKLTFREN
UniProt P10636, 623-708 limits assumed: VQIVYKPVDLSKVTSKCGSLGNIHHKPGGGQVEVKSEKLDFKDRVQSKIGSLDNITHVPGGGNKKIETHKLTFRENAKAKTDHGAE
UniProt P10636, 623-695 limits assumed: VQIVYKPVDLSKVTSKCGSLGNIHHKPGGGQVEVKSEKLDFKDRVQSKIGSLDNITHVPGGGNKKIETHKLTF

Columns and labels:
[1] = biological target: tau, AD FC brain homogenates (Homo sapiens, UniProt P10636); assay: ^3H-PI2620 saturation binding assay in AD frontal cortex brain homogenates; settings: tested as the radiolabelled form
[2] = biological target: tau, CBD FC brain homogenates (Homo sapiens, UniProt P10636); assay: ^3H-PI2620 saturation binding assay in CBD frontal cortex brain homogenates; settings: tested as the radiolabelled form
[3] = biological target: tau, PSP FC brain homogenates (Homo sapiens, UniProt P10636); assay: ^3H-PI2620 saturation binding assay in PSP frontal cortex brain homogenates; settings: tested as the radiolabelled form
[4] = biological target: tau, small frozen FC sections from CBD cases (Homo sapiens, UniProt P10636); assay: Small frozen FC section autoradiography, CBD cases; settings: tested as the radiolabelled form; for NSP binding: 1 nM tracer + 1 μM unlabelled
[5] = biological target: tau, small frozen FC sections from PSP cases (Homo sapiens, UniProt P10636); assay: Small frozen FC section autoradiography, PSP cases; settings: tested as the radiolabelled form; for NSP binding: 1 nM tracer + 1 μM unlabelled
[6] = tested on: tau, homogenates from different regions of AD and control brains; assay: ^3H-PI2620 brain regional binding studies in AD and control brain homogenates; settings: tested as the radiolabelled form
[7] = biological target: tau, large frozen hemispherical brain sections from AD case A (Homo sapiens, UniProt P10636); assay: Large frozen adjacent hemispherical brain section autoradiography, sporadic AD case A; settings: tested as the radiolabelled form
[8] = tested on: tau, post-mortem PSP brain tissue; settings: PSP frontal cortex (FC); tested as the radiolabelled form; cited from earlier work

Work on Fc1cc(-c2ccc3c(n2)[nH]c2ccncc23)ccn1 [PI2620] yielded a Bmax2 ([1]; AD FC homogenates, saturation) of 69 fmol/mg, a Bmax1 ([1]; AD FC homogenates, second binding site, Scatchard plot manually drawn) of 30 fmol/mg and a specific binding values ([1]; AD brains, saturation and regional distribution binding assays in homogenates) of less than 70 fmol/mg. The “specific binding in AD brain tissue, fold higher than in CBD” value ([1]; FC homogenates) was 2.5 fold, the “specific binding in AD brain tissue, fold higher than in PSP” value ([1]; FC homogenates) was 6.5 fold and the Kd ([1]; read-out: Kd1, AD FC homogenates, second binding site, Scatchard plot manually drawn) was 0.2 nM. The Kd ([1]; read-out: Kd2, AD FC homogenates, saturation) was 0.7 nM, the Bmax2 ([2]; CBD FC homogenates, saturation) was 32 fmol/mg and the Bmax1 ([2]; CBD FC homogenates, second binding site from Scatchard plot) was 8.0 fmol/mg and 8 fmol/mg. For the same molecule, the specific binding values ([2]; CBD brains, binding assays in homogenates) was less than 30 fmol/mg, the “Bmax in CBD brain tissue, fold lower than in AD brain tissue” value ([2]; FC homogenates) was 2 fold and the “Bmax in CBD, fold higher than in PSP brain tissue” value ([2]; FC homogenates) was 2.6 fold. The Kd ([2]; read-out: Kd1, CBD FC homogenates, second binding site from Scatchard plot) was 0.1 nM, the Kd ([2]; read-out: Kd2, CBD FC homogenates, saturation) was 1.2 nM and the “Bmax in PSP, fold lower than in AD brain tissue” value ([3]; FC homogenates) was 6 fold. The Bmax ([3]; PSP FC homogenates, one binding site) was 12 fmol/mg, the specific binding values ([3]; PSP brains, binding assays in homogenates) was less than 10 fmol/mg and the “visual assessment of total versus NSP binding” value ([4]; CBD and PSP small frozen FC sections) was “significantly more intense for total than for NSP binding”. For the same molecule, the “specific binding values in small sections, fold higher than in brain homogenates” value ([4]; CBD) was ~ 3.1 fold, the NSP binding ([4]; case CBD 20) was 19.9 fmol/mg and the Specific binding ([4]; case CBD 20, 1 nM tracer) was 27.6 fmol/mg. The “Specific binding (%)” value ([4]; case CBD 20, 1 nM tracer) was 58% and 58.1%, the TOTAL binding ([4]; case CBD 20, 1 nM tracer) was 47.6 fmol/mg and the NSP binding ([4]; case CBD 22) was 16.5 fmol/mg. For the same molecule, the Specific binding ([4]; case CBD 22, 1 nM tracer) was 54.9 fmol/mg, the “Specific binding (%)” value ([4]; case CBD 22, 1 nM tracer) was 77% and 76.9% and the TOTAL binding ([4]; case CBD 22, 1 nM tracer) was 71.3 fmol/mg. For the same molecule, the NSP binding ([4]; case CBD 23) was 25.3 fmol/mg, the Specific binding ([4]; case CBD 23, 1 nM tracer) was 62.3 fmol/mg and the “Specific binding (%)” value ([4]; case CBD 23, 1 nM tracer) was 71% and 71.1%. For the same molecule, the TOTAL binding ([4]; case CBD 23, 1 nM tracer) was 87.6 fmol/mg, the “specific binding (%) over the CBD cases” value ([4]; three CBD cases, 1 nM tracer) was 58-77% and the “specific binding values in small sections, fold higher than in brain homogenates” value ([5]; PSP) was 2.9 fold. For the same molecule, the NSP binding ([5]; case PSP 27) was 12.3 fmol/mg, the Specific binding ([5]; case PSP 27, 1 nM tracer) was 34.9 fmol/mg and the “Specific binding (%)” value ([5]; case PSP 27, 1 nM tracer) was 73% and 73.9%. It also gave a TOTAL binding ([5]; case PSP 27, 1 nM tracer) of 47.2 fmol/mg, an NSP binding ([5]; case PSP 28) of 26.0 fmol/mg and a Specific binding ([5]; case PSP 28, 1 nM tracer) of 20.3 fmol/mg. For the same molecule, the “Specific binding (%)” value ([5]; case PSP 28, 1 nM tracer) was 44% and 43.9%, the TOTAL binding ([5]; case PSP 28, 1 nM tracer) was 46.3 fmol/mg and the “specific binding (%) over the PSP cases” value ([5]; two PSP cases, 1 nM tracer) was 44-73%. For the same molecule, the “regional binding distribution rank order” value ([6]; AD brains) was “FC > TC > PC > hippocampus”, the “specific binding in EOAD brains compared to LOAD brains” value ([6]; FC (p < 0.001), PC and TC (p < 0.01), 0.6 nM) was “significantly higher” and the “binding in LOAD brains compared to controls” value ([6]; FC (p = 0.02) and TC (p < 0.01), 0.6 nM) was “significantly higher”. The “specific binding in AD brains compared to control brains” value ([6]; FC and TC (p < 0.001), 0.6 nM) was “significantly higher”, the “binding in EOAD brains compared to control brains” value ([6]; all cortical regions (p < 0.001) and hippocampus (p < 0.01), 0.6 nM) was “significantly higher” and the “binding in AD versus control brains” value ([6]; cerebellum, 0.6 nM) was “No significant differences”. For the same molecule, the “specific binding in AD brains compared to control brains” value ([6]; hippocampus (p = 0.02), 0.6 nM) was “significantly higher”, the “binding in the entorhinal cortex (EC), qualitative/visual” value ([7]; all EC layers) was “less intense and more diffuse” and the “binding in the hippocampal (HIPP) CA1 region, qualitative” value ([7]; compared to ^3H-MK6240 and ^3H-RO948) was “qualitatively less binding”. The “in vitro binding using autoradiography” value [8] was “no in vitro binding”.
